The results in this text go back to patent US12581252B2, “Substituted pyrrolo[3,4-b]pyridines as PI3K-α inhibitors” (Relay Therapeutics, Inc., priority 2020, dated 2026).

Protein sequences, listed by entry. Tags and fused reporters are not part of them.
UniProt P42336, whole entry H1047R: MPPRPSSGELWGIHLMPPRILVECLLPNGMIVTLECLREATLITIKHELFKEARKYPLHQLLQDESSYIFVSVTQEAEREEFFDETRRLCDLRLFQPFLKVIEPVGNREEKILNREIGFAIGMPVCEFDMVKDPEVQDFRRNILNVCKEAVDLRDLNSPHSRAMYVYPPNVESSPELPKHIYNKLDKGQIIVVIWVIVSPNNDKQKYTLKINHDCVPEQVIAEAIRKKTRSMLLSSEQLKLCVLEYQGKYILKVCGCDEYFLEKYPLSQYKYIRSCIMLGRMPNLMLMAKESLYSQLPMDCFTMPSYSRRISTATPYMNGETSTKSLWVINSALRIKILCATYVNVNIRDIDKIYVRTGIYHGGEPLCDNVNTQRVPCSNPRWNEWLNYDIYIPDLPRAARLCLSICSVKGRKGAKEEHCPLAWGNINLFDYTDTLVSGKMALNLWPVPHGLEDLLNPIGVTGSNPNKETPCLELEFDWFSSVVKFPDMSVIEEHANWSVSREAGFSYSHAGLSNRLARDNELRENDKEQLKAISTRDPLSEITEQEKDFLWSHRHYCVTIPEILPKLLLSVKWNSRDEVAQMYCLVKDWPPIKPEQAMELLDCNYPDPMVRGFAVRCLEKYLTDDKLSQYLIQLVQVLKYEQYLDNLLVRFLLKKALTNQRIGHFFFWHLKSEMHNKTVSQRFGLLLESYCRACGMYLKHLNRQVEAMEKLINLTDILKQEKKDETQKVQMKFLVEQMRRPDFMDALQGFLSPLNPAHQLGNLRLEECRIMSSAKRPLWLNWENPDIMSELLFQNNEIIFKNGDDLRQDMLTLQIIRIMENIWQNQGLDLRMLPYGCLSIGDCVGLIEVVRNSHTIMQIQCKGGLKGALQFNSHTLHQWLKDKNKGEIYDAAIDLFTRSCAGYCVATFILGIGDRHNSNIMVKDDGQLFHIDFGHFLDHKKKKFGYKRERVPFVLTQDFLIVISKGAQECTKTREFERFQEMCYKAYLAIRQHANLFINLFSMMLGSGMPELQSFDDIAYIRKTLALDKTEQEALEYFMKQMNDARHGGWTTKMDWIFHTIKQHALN
UniProt P27986, whole entry partner: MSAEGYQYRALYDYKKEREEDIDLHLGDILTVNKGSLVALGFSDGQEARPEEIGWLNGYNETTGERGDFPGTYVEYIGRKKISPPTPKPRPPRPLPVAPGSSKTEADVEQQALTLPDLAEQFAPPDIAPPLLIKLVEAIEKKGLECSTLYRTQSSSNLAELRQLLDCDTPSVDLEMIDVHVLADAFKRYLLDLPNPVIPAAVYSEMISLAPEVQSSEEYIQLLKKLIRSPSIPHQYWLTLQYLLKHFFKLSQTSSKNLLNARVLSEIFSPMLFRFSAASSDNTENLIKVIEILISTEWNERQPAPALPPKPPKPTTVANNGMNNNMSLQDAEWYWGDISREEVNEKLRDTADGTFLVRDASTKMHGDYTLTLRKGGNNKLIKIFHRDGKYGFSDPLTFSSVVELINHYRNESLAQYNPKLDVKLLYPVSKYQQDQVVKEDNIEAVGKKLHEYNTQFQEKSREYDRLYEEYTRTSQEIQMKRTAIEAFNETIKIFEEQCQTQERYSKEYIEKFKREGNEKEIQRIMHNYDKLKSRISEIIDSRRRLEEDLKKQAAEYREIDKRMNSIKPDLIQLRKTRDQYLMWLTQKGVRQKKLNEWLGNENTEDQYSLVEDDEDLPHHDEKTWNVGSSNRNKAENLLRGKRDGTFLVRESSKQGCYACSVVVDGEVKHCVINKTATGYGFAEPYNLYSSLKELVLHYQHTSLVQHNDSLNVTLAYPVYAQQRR

Some results are limits rather than exact numbers.

One assay deals with H1047R PIK3CA enzyme (Homo sapiens, UniProt P42336, H1047R). Nature of the assay: ADP-Glo Biochemical PIK3CA Kinase Assay. To be noted: read-out: ADP-Glo IC50.
In general, IC50 refers to the concentration at which inhibition is half-maximal. As to `Cc1ccccc1C1NC(=O)c2cc(Br)cc(NC(=O)c3cncc(C(F)(F)F)n3)c21` (stereo not drawn), the IC50 is 10 to 100 µM. Still for that read-out and setting: the value for `CC(=O)N1CCC(Oc2cc(NC(=O)c3cc(F)cc(C(F)(F)F)c3)c3c(c2)C(=O)NC3c2cc(F)ccc2Cl)C1` (stereo not drawn) was less than 0.1 µM. For the compound `CC(O)(CC#N)c1cc(NC(=O)c2cc(F)cc(C(F)(F)F)c2)c2c(c1)C(=O)NC2c1cc(F)ccc1Cl` (single isomer, unassigned) [I-1344], the IC50 lay in the range of 0.5 to 1 µM. Regarding `CC(O)(CC#N)c1cc(NC(=O)c2cc(F)cc(C(F)(F)F)c2)c2c(c1)C(=O)NC2c1cc(F)ccc1Cl` (single isomer, unassigned) [I-1345], the IC50 is less than 0.1 µM.

For `O=C1NC(c2cc(F)ccc2Cl)c2c(NC(=O)N3CC(O)(C(F)(F)F)c4cc(F)ccc43)cc(-n3ccccc3=O)cc21` (stereo not drawn), the IC50 is less than 0.1 µM. With `Nc1cc(NC(=O)c2cc(F)cc(Cl)c2)c2c(c1)C(=O)NC2c1cc(F)ccc1Cl` (stereo not drawn), the IC50 was less than 0.1 µM. In the case of `O=C1N[C@@H](c2cc(F)ccc2Cl)c2c(NC(=O)N3C[C@@](O)(CO)c4ccccc43)cccc21`, the IC50 was in the range of 10 to 100 µM. On the same count and under the same terms, to `O=C1NC(c2cc(F)ccc2Cl)c2c(NC(=O)[C@H]3CCC[C@@H](C(F)(F)F)C3)cc(-c3ccc4ncnn4c3)cc21` (relative stereo) belongs 0.1 to 0.5 µM; to `O=C1NC(c2cc(F)ccc2Cl)c2c(NC3CCOc4ccccc43)cc(Br)cc21` (stereo not drawn), 0.1 to 0.5 µM. Turning to `NC1(c2cc(NC(=O)c3cc(F)cc(C(F)(F)F)c3)c3c(c2)C(=O)NC3c2cc(F)ccc2Cl)CC1` (stereo not drawn), the IC50 is less than 0.1 µM.

The next assay relates to PIK3CA-mediated AKT phosphorylation in MCF10A cells overexpressing hotspot PIK3CA mutations (including H1047R, E542K, and E545K). The assay can be described thus: MCF10A Cell-Based PIK3CA Kinase Assay (CisBio Phospho-AKT (Ser473) HTRF assay). As to conditions: read-out: MCF10A IC50. On the technique in general: TR-FRET usually uses a lanthanide donor and a delayed reading to cut background.
With `O=C1NC(c2cc(F)ccc2Cl)c2c(NC(=O)N3CC(O)(C(F)(F)F)c4cc(F)ccc43)cc(-n3ccccc3=O)cc21` (stereo not drawn), the IC50 was less than 1 µM.

Consider `Nc1cc(NC(=O)c2cc(F)cc(Cl)c2)c2c(c1)C(=O)NC2c1cc(F)ccc1Cl` (stereo not drawn), for which the IC50 was less than 1 µM.
